One molecule from PMC9176691, “Design, synthesis and biological evaluation of novel diosgenin–benzoic acid mustard hybrids with potential anti-proliferative activities in human hepatoma HepG2 cells” (Journal of Enzyme Inhibition and Medicinal Chemistry, 2022) can be followed below.

Holding throughout (format): cell-based, human
The subject of one assay is HepG2 cells. In words: MTT anti-proliferative assay, HepG2. The note with it: read-out: IC50 HepG2, 48 h treatment, average ± SD of three independent experiments.
In the next assay the test system is MCF-7 cells. The assay can be described thus: MTT anti-proliferative assay, MCF-7. The note with it: read-out: IC50 MCF-7, 48 h treatment, average ± SD of three independent experiments. (In general: Tetrazolium assays rely on reduction of a dye to a coloured formazan, in cell work by metabolically active cells.)
The next assay relates to HeLa cells. The assay can be described thus: MTT anti-proliferative assay, HeLa. As to conditions: read-out: IC50 HeLa, 48 h treatment, average ± SD of three independent experiments.

By IC50 is commonly meant the concentration that gives 50% inhibition.

Molecules are shown by their SMILES. Where only a bound is given, the exact number is not on record here.

`O=C(O)c1ccc(N(CCCl)CCCl)cc1`: the results for the IC50 in the assay on HepG2 cells, in the assay on MCF-7 cells and with HeLa cells were > 50 µM, 25.6 µM and > 100 µM, respectively.
